For the series the following is noted: 130 mg/kg vs 10 mg/kg.

On to `CN1CC[C@]23c4c5ccc(O)c4O[C@H]2[C@@H](O)C=C[C@H]3[C@H]1C5` [morphine], for which the “maximum tolerated dose relative to therapeutic dose (10 mg/kg)” value turned out to be 13 fold.

The values are drawn from paper PMC8308721 (Pharmaceutics, 2021).
